Data: US6979686B1, “Substituted pyrazoles as p38 kinase inhibitors” (Pharmacia Corporation, priority 2001, dated 2005)
pIC50: −log10 of the molar value.

Amino acid sequences for entries named in this document (tags omitted).
UniProt Q16539, whole entry: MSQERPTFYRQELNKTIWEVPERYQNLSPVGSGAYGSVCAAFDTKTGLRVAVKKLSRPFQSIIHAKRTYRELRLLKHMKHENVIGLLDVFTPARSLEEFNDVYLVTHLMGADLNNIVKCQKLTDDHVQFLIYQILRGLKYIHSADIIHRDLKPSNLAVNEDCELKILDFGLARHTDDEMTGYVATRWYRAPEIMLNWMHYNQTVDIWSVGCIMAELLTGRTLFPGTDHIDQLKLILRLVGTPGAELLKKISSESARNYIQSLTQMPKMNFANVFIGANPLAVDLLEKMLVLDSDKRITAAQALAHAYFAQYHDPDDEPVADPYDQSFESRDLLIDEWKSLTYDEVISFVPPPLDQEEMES

Molecular target: T1, human p38 kinase alpha (Homo sapiens, UniProt Q16539)
T1 construct: GST (N, cleaved yes); made in house; host or cells: E. coli DH10B
Assay: p38 kinase in vitro assay, phosphorylation of biotinylated PHAS-I with 32P-ATP
Format: biochemical
Conditions: in vitro P38-alpha kinase inhibition
Description: The coding region of the human p38a cDNA was obtained by PCR-amplification from RNA isolated from the human monocyte cell line THP.1. […] Random primer, dNTP's and Superscript™ reagents were all purchased from Life-Technologies, Gaithersburg, Mass. The reaction was incubated at 42° C. for 1 hour. Amplification of p38 cDNA was performed by aliquoting 5 μl of the reverse transcriptase reaction into a 100 μl PCR reaction containing the following: 80 μl dH2O, 2 μl 50 mM DNTP's, 1 μl each of forward and reverse primers (50 pmol/μl), 10 μl of 10×buffer and 1 μl Expand™ polymerase (Boehringer Mannheim). The PCR primers incorporated BamHI sites onto the 5′ and 3′ end of the amplified fragment, and were purchased from Genosys. […] The PCR amplification was carried out in a DNA Thermal Cycler (Perkin Elmer) by repeating 30 cycles of 94° C. for 1 minute, 60° C. for 1 minute and 68° C. for 2 minutes. After amplification, excess primers and unincorporated dNTP's were removed from the amplified fragment with a Wizard™ PCR prep (Promega) and digested with BamHI (New England Biolabs). […]
Overnight cultures were grown in-Luria Broth (LB) containing […] ampicillin. The next day, 500 ml of fresh LB was inoculated with 10 ml of overnight culture, and grown in a 2 liter flask at 37° C. with constant shaking until the culture reached an absorbance of 0.8 at 600 nm. […]

pIC50: 5.79
Compound: CC(NC(=O)c1cccc2ccccc12)c1[nH]nc(-c2ccc(F)cc2)c1-c1ccncc1 (stereo not shown) [Example B-0677]
